ChEMBL document CHEMBL1944510, “Potent galloyl-based selective modulators targeting multidrug resistance associated protein 1 and P-glycoprotein” (J Med Chem, 2012)

Sequences of proteins named here, by UniProt entry; tags and fusion partners are left off.
UniProt P08183, whole entry: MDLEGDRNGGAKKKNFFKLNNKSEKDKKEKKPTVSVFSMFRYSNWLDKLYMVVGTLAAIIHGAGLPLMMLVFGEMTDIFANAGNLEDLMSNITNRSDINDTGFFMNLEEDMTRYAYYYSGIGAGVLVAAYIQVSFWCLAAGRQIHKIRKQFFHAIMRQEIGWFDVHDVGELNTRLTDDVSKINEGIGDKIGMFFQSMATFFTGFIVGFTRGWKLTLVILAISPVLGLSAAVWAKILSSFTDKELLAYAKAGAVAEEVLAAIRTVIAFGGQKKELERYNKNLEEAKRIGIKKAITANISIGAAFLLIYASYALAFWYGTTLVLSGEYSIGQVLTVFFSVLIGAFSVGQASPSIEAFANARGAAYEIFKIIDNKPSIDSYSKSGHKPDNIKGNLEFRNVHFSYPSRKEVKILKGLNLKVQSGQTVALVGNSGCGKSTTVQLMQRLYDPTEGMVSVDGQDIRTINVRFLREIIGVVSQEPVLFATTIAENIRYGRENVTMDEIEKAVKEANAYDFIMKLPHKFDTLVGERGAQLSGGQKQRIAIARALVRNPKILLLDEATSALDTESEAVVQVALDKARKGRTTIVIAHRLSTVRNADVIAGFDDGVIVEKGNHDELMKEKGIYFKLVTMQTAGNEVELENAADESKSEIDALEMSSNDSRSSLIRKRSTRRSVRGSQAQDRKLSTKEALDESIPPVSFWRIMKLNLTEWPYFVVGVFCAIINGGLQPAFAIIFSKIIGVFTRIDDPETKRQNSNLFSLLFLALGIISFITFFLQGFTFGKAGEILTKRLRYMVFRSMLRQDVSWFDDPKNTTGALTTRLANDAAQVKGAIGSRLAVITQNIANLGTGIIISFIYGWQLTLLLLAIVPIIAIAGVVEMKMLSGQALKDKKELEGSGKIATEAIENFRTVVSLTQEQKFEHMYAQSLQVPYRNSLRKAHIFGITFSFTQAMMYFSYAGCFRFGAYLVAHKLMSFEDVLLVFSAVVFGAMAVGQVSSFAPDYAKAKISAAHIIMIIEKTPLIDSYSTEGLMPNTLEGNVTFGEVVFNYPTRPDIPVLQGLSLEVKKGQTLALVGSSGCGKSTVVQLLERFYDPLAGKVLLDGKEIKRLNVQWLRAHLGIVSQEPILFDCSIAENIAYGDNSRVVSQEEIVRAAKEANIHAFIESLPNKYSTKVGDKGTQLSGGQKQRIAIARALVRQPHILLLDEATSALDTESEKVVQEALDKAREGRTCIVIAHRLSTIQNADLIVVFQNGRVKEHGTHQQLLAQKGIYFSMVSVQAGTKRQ

Target: ATP-dependent translocase ABCB1 (Homo sapiens, UniProt P08183)
Assay: Inhibition of human MDR1 expressed in MDCK cells assessed as calcein AM accumulation after 30 mins by fluorescence assay
Format: cell-based

- IC50: 2.6 µM
SMILES: COc1cc(C(=O)Nc2ccc(-c3cc(F)cc(F)c3)cc2[N+](=O)[O-])cc(OC)c1OC
